This note sets out measurements from PubChem BioAssay AID560 (The Scripps Research Institute Molecular Screening Center, 2006).

By UniProt entry, the sequences of proteins in these tests, tags left out.
UniProt P35398, whole entry: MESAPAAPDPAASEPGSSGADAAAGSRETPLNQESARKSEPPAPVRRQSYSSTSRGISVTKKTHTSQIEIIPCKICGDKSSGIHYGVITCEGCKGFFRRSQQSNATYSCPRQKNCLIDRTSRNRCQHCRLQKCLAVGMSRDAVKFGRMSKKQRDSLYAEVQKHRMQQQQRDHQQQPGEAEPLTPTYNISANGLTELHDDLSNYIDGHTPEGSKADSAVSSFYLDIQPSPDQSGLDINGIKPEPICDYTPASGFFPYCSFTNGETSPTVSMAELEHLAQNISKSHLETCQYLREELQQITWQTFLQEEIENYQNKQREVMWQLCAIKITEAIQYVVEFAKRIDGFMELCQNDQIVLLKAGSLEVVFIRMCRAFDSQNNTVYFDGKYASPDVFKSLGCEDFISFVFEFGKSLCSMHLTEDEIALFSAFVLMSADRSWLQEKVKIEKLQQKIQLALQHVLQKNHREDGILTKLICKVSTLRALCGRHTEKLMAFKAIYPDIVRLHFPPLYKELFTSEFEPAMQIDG

Only a part is listed here, and it is no random draw. Calls of active or inactive are those of the source.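 How the source made its calls: active means activation above the mean of all tested compounds plus 3 SD (cut at about 49% in these data); inactive means the rest.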

The assay deals with Nuclear receptor ROR-alpha (Homo sapiens) (UniProt P35398). The experiment in a line: RORA ligand-binding domain transcriptional activation – cell-based, luminescence, primary screen (AID 560).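 Further: 0% = DMSO-treated RORA cells and 100% = added signal equal to DMSO minus mock-transfected cells.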 The conditions noted are these: CHO-K1 Gal4-RORA LBD luciferase reporter, at 10 µM, active compounds read high, percent increase over mock-subtracted basal signal.
On to `CP(=O)(Nc1ccc2c(c1)OCCO2)Oc1ccccc1` (stereo unspecified), for which the activation was inactive: 17.9%.
